Only a part is listed here, and it is no random draw. Calls of active or inactive are those of the source.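 The calls were made as follows: active = viability at or below the median of all test compounds minus 3 SD, in both replicates if run twice (cut at about 45% in these data); inconclusive = duplicate replicates that disagree with each other; inactive = viability above that cutoff in every replicate.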
Test: viability loss of SK-BR-3 cells – cell-based, human, 24 h, primary screen (AID 847);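 also: 100% = median untreated cell wells and 0% = median positive control drug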
Settings: SK-BR-3 viability, CellTiter-Glo ATP luminescence, at 10 µM, stronger effect = lower value

| SMILES | viability |
| --- | --- |
| O=C(OC1CN2CCC1CC2)C12CC3CC(CC(C3)C1)C2 (stereo unspecified) | inactive: 60.8% |
| O=C(COc1ccccc1)OC1CN2CCC1CC2 (stereo unspecified) | inactive: 78.8% |
| Cc1ccc(OCC(=O)OC2CN3CCC2CC3)cc1 (stereo unspecified) | inactive: 102% |
| O=P1(Nc2ccc(Br)cn2)COc2ccccc2OC1 | inactive: 89.8% |
| O=P1(Nc2ncccn2)COc2ccccc2OC1 | inactive: 95.1% |
| O=P1(Nc2ccccn2)COc2ccccc2OC1 | inactive: 110% |
| Cc1cccc(OCC(=O)OC2CN3CCC2CC3)c1 (stereo unspecified) | inactive: 104% |
| COC(=O)c1cc2c(s1)N=C(c1ccccc1)N(C)P2(=O)N1CCOCC1 (stereo unspecified) | inactive: 89.9% |
| O=P1(Nc2nc3ccc(Cl)cc3s2)COc2ccccc2O1 (stereo unspecified) | inactive: 102% |
| c1nnnn1CCn1cnnn1 | inactive: 89.1% |
| O=C(OC1CN2CCC1CC2)c1cccc(Cl)c1 (stereo unspecified) | inactive: 99.4% |
